# Apparent affinities of Ab-14 variants for a coronavirus HR2 peptide

All variants were tested on one target, the spike HR2 peptide PDVDLGDISGINAS (SARS-CoV-2).

Ab-14 is the parent antibody, in scFv form: VH, then three GGGGS repeats, then VL. The light chain is unchanged in all variants.
VH: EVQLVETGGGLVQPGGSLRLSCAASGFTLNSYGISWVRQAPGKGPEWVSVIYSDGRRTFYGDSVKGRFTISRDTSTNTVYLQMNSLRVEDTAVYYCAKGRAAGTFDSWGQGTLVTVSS
VL: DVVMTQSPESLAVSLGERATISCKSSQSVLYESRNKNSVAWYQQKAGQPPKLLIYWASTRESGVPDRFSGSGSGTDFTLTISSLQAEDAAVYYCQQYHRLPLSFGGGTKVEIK

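Phage display of a naive human antibody library on the peptide gave the parent. In library AAYL49, one, two or three CDR residues were substituted; doubles and triples were drawn at random. The scFvs were displayed on barcoded MATa yeast, the peptide on MATalpha yeast. Binding brings cells together so that they mate, and sequencing counts the barcode pairs among the diploids. A regression on co-assayed BCL2-family reference pairs converts the normalised counts of each replicate to an apparent Kd. The assay was run in three technical replicates.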

Positions count from residue 1 of the parent VH; R56S puts S in place of R. The read-out is the apparent dissociation constant on a log10 scale (nM): the lower, the stronger. A mean of the replicates is given; it leaves out those without a signal. "no signal" means that the variant was in the library but no mating with the target was seen in any replicate; the authors take this as a sign of poor binding, and no number exists. Three control strains display no target. For library AAYL49, 15% of the pairings with them gave a signal, with a median of 4.06 and one signal in twenty below 2.83, so weak values seen in few replicates may be background. Also given: how often the same scFv was detected with the empty control strains. Parent in this assay: reference entry 0.65, copy in this library 4.11 (one replicate of three).

changes | log10 Kd (nM), mean | seen in | control signals
R56S+T58V+S107Y | 1.04 | 3/3 | 0/9
F27Y+Y52N+R57P | 3.73 | 2/3 | 1/9
S31D+F59M+R100S | 0.12 | 3/3 | 3/9
L29S+V50M+S63Y | no signal | 0/3 | 1/9
S53D+K65P+F105Y | no signal | 0/3 | 2/9
N30S+R57M+Y60S | 4.20 | 1/3 | 2/9
S53G+Y60N+F105E | no signal | 0/3 | 1/9
F27M+R56P+F105M | 3.78 | 2/3 | 2/9
T58K+D62L+A101P | 5.76 | 1/3 | 2/9
F27A+Y32W+G33N | 5.26 | 1/3 | 3/9
F27H+N30D+I51T | no signal | 0/3 | 0/9
I51L+R57W+R100Q | no signal | 0/3 | 1/9
S63F+K65V+D106T | no signal | 0/3 | 0/9
N30R+F59W+R100T | 1.50 | 3/3 | 2/9
G33T+S53G+R57K | 3.64 | 1/3 | 1/9
F59Q+G99N+A101D | no signal | 0/3 | 0/9
G26C+G55A+R56G | no signal | 0/3 | 0/9
G55W+G61A+A102H | 5.32 | 1/3 | 1/9
Y32D+F59W | no signal | 0/3 | 2/9
K65V+G103R | 4.58 | 1/3 | 0/9
L29G+A101R+S107P | 5.31 | 3/3 | 6/9
L29R+D62S+T104Q | no signal | 0/3 | 0/9
D54E+F59E+F105I | no signal | 0/3 | 1/9
I51V+D62R+R100H | 4.14 | 1/3 | 3/9
S31V+T58R+G99R | 3.22 | 1/3 | 1/9
T28D+L29M+V50Y | 3.90 | 1/3 | 1/9
G33W+D54V+T104A | 5.46 | 1/3 | 3/9
F59R+G61D+V64E | no signal | 0/3 | 2/9
S53R+F59L+D62Q | 3.06 | 1/3 | 2/9
S31E+R56W+G103V | 3.19 | 1/3 | 1/9
Y32L+D62Y+D106P | 4.87 | 2/3 | 3/9
F27L+A102G | 3.98 | 3/3 | 2/9
V50P+K65I+G99Y | 3.18 | 1/3 | 0/9
G61T+G99Q | 1.80 | 3/3 | 1/9
G26F+S31E+Y52M | no signal | 0/3 | 0/9
I34P+G99Q+A102I | no signal | 0/3 | 0/9
G55E+A101L+T104M | 3.27 | 1/3 | 1/9
Y32P+I34K | no signal | 0/3 | 1/9
G33N+S63M | 5.48 | 1/3 | 1/9
T28P+R100M+D106M | no signal | 0/3 | 0/9
S35K+T58W+K65E | no signal | 0/3 | 2/9
I34R+S35H+Y52L | no signal | 0/3 | 2/9
D54S+G55F+A102Y | 4.60 | 1/3 | 2/9
S31G+D54N+G61V | no signal | 0/3 | 0/9
D62H+A101L+A102N | 4.42 | 2/3 | 0/9
G61E+K65Q+S107V | no signal | 0/3 | 1/9
G33N+S63T+A101S | 4.97 | 1/3 | 1/9
I34H+S35Q+R56Y | 3.48 | 1/3 | 1/9
R57V+G103T | 4.92 | 2/3 | 7/9
F27P+G55C+G103M | no signal | 0/3 | 2/9
I34L+Y60L | no signal | 0/3 | 0/9
Y52G+A101F+G103S | 5.09 | 1/3 | 3/9
T28E+V50E+D106Q | no signal | 0/3 | 1/9
L29E+R56W+D106F | 4.64 | 2/3 | 3/9
Y52H+R57V+F105N | no signal | 0/3 | 1/9
Y52A+F59Q+A102H | no signal | 0/3 | 1/9
F27D+G33K+T104G | 3.48 | 1/3 | 6/9
Y32G+I34M | 3.71 | 1/3 | 1/9
G55K+V64M+G99C | 4.08 | 2/3 | 5/9
G55H+T104H+S107A | no signal | 0/3 | 2/9
G33D+D54F+R56D | no signal | 0/3 | 1/9

The measurements come from Engelhart et al. 2022 (doi:10.1038/s41597-022-01779-4) through the FLAb antibody collection.